# Results as given in patent US20140378529A1, “COLLATERAL GENE INACTIVATION BIOMARKERS AND TARGETS FOR CANCER THERAPY” (Board Regents, The University of Texas System, priority 2011, published 2014).
# Test system: ENO1-null D423-MG cells
# Test: Relative growth with receptor tyrosine kinase inhibitors or rapamycin
# Format: cell-based, human
# Details: combination of sorafenib, lapatinib and PHA665752
smiles,measurement,value
CNC(=O)c1cc(Oc2ccc(NC(=O)Nc3ccc(Cl)c(C(F)(F)F)c3)cc2)ccn1 [sorafenib],sensitivity of ENO1-null D423-MG cells versus ENO1 WT GBM cell lines,no more sensitive
